## Antibody variant affinities, Ab-14 heavy chain, assay 1

Binding partner: SARS-CoV-2 spike HR2 peptide, sequence PDVDLGDISGINAS.

Parent: Ab-14, a human scFv built as VH, three GGGGS repeats, VL. Only the CDRs of the heavy chain vary.
VH: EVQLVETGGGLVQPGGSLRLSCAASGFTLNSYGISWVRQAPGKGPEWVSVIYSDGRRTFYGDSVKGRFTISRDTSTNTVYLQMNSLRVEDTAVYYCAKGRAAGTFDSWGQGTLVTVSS
VL: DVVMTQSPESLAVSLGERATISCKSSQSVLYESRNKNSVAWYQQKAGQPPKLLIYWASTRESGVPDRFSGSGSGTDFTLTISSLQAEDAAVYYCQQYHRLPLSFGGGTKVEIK

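The parent was found by panning a naive human phage display library on the peptide. The library (AAYL49) carries one to three amino acid substitutions per variant, with no insertions or deletions. The assay is AlphaSeq: two haploid yeast populations carry antibody and antigen on their surface. Binding brings cells together so that they mate, and sequencing counts the barcode pairs among the diploids. The ratio of observed to expected reads was calibrated, replicate by replicate, on BCL2-family standards whose Kd was known from biolayer interferometry. Mating was done three times.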

The parent's heavy chain CDRs are GFTLNSYGIS, VIYSDGRRTFYGDSVK, GRAAGTFDS; each variant's own CDRs replace them letter for letter.
Affinities are written as log10 Kd with Kd in nM; a lower number is a better binder.
A pair that was not seen in that replicate is written "nd"; this usually means weak binding, but a binder can also be missed.
Nonspecific signal, from three strains lacking the peptide, appeared in 15% of pairings of library AAYL49, centred on 4.06 (5% of these signals below 2.83); values are not corrected for it. For each scFv, signals with the empty controls are counted beside the result.
For reference, the parent read 0.65 as the reference entry and 4.11 (one replicate of three) as a member of this library.

For GFTLNSYGVS / VIYSDGRRTFYGDSVK / HRAAGTFDS, the assay gave 1.47, 1.55, 1.84 (controls 1 of 9).
For GFTLNSYGIS / VIYSDGRRQFYGDRVK / GRAAGTFDF, the assay gave 3.07, 2.23, 3.79 (controls 0 of 9).
For GFTLNSYGIS / VIISWGRRTFYGDEVK / GRAAGTFDS, the assay gave nd, nd, nd (controls 2 of 9).
For GFTLNQYGIS / VIYSDGWRTFYGDSVK / DRAAGTFDS, the assay gave nd, nd, 4.40 (controls 1 of 9).
For GFTHNSYGIS / VIDSDGRRTFYGDSVK / GRAAGTPDS, the assay gave 5.61, 3.43, 5.01 (controls 4 of 9).
For GFTLNSYVGS / VIYSDGRRTFYGDSAK / GRAAGTFDS, the assay gave nd, 3.62, nd (controls 6 of 9).
For GFTLNSYGGS / VIYSDGRRTFYGFSVK / GRAAGTFDS, the assay gave nd, nd, nd (controls 0 of 9).
For GFTLNSYGIS / VIYSDGRRTFYGDSVW / GRRAGTFDP, the assay gave nd, nd, nd (controls 0 of 9).
For GFTLQSAGIS / VIYSGGRRTFYGDSVK / GRAAGTFDS, the assay gave nd, nd, nd (controls 1 of 9).
For GFTLNSYGIS / VIYSDGRRDFYGPSVK / GRAAGTFDS, the assay gave 2.71, 2.77, 2.26 (controls 2 of 9).
For GFTLNSYTIS / SIYSDGRRTFYGDSVK / GRCAGTFDS, the assay gave nd, 3.12, nd (controls 0 of 9).
For GFTLNSYGIS / VIYSDGMRTFYGRSVK / GRAGGTFDS, the assay gave 2.40, nd, nd (controls 0 of 9).
For GFTLNSYGIS / VIYSDGRRTFYGDSLK / PRAAGTFDS, the assay gave nd, nd, nd (controls 0 of 9).
For GFTLNSYGIS / VIYSWGRRTFYGDSVK / GCAAGTFDE, the assay gave 4.39, 3.77, nd (controls 6 of 9).
For GFTLNSYGIS / VIYSDGERPFYGDSVK / GRAAGSFDS, the assay gave nd, nd, 4.65 (controls 4 of 9).
For GFTLNSYGIS / VIVSDGRRTFYGDSVK / VRTAGTFDS, the assay gave nd, nd, nd (controls 0 of 9).
For GFTLQSYGKS / TIYSDGRRTFYGDSVK / GRAAGTFDS, the assay gave nd, 2.81, nd (controls 1 of 9).
For GTWLNSYGIS / VIYSDGRRTFYGDSVK / GIAAGTFDS, the assay gave 3.69, 3.40, 4.36 (controls 0 of 9).
For GFILNSYGIE / VIYSDGRRTFYGDSVK / GRAASTFDS, the assay gave nd, 4.78, 5.15 (controls 2 of 9).
For GWKLNSYGIS / VIYSDGRRTNYGDSVK / GRAAGTFDS, the assay gave 4.38, nd, nd (controls 1 of 9).
For GFTGNSAGIV / VIYSDGRRTFYGDSVK / GRAAGTFDS, the assay gave nd, 3.56, nd (controls 0 of 9).
For GNTLNSYGIS / VIYSDGRRTFLGDSLK / GRAAGTFDS, the assay gave nd, nd, nd (controls 1 of 9).
For HFTLNSYGHS / VIYSDGRRTFYGDSVK / GRAAGTFDH, the assay gave nd, nd, nd (controls 7 of 9).
For GFTLNSYGIS / VIYSDGWRTFYADSVK / GRATGTFDS, the assay gave nd, 3.69, 4.61 (controls 1 of 9).
For GFTLNSYGIS / VIYSDGRRTFSGDSVE / GRAAGTFDS, the assay gave nd, nd, 3.15 (controls 0 of 9).
For GFVLNSYGIS / VIYDDGRRTFYGDSVK / GLAAGTFDS, the assay gave nd, nd, 2.94 (controls 1 of 9).
For GFTLNSYGIS / VIYSDGRRTFYGDMVK / GVAAGTFSS, the assay gave 2.82, 3.05, 2.63 (controls 2 of 9).
For GFTLNSFGIS / VIYSDGRGTQYGDSVK / GRAAGTFDS, the assay gave 3.60, nd, nd (controls 1 of 9).
For GFTLNSYGIS / VIYLDGRRTFYGDSVK / WRAAGVFDS, the assay gave 5.99, nd, nd (controls 4 of 9).
For GFTLNSYGIS / VIYSDGHRTFYGDMVK / GRAAGTTDS, the assay gave 4.48, nd, nd (controls 2 of 9).
For GFTLNSYGIS / VIYSDGRRTFYGDSTK / GRATGTSDS, the assay gave nd, nd, nd (controls 1 of 9).
For GFTLNSYGIS / VIYSDCRRGFYGDNVK / GRAAGTFDS, the assay gave 7.05, 4.80, nd (controls 5 of 9).
For GFTLNSPGIS / VIYCDGRRTFYGDSVK / YRAAGTFDS, the assay gave nd, nd, nd (controls 3 of 9).
For GFTLNSYGIS / VIYSCGRRTEYGDSVK / GRAAQTFDS, the assay gave nd, nd, nd (controls 1 of 9).
For GNILNSYRIS / VIYSDGRRTFYGDSVK / GRAAGTFDS, the assay gave nd, nd, nd (controls 3 of 9).

Top 2 of the variants detected in all replicates, tightest first:

{"CDR-H1": "GFTLNSYGVS", "CDR-H2": "VIYSDGRRTFYGDSVK", "CDR-H3": "HRAAGTFDS", "log10 Kd, replicates": "1.47, 1.55, 1.84", "control signals": "1/9"}
{"CDR-H1": "GFTLNSYGIS", "CDR-H2": "VIYSDGRRDFYGPSVK", "CDR-H3": "GRAAGTFDS", "log10 Kd, replicates": "2.71, 2.77, 2.26", "control signals": "2/9"}

The measurements come from Engelhart et al. 2022 (doi:10.1038/s41597-022-01779-4) through the FLAb antibody collection.